Reference: patent US8399206B2, “Methods for diagnosis, prognosis and methods of treatment” (Nodality, Inc., priority 2008, dated 2013)

What was measured:
AML blasts = experiment: SCNP / phospho-flow modulated signaling assay, AML study No. 1 (PBMC at diagnosis, CR vs NR); type: cell-based, human; settings: Study No. 1 sensitivity analysis
Excerpt: The present illustrative example represents how to analyze cells in one embodiment of the present invention. There are several steps in the process, such as the stimulation step, the staining step and the flow cytometry step. The stimulation step of the phospho-flow procedure can start with vials of frozen cells and end with cells fixed and permeabilized in methanol. Then the cells can be stained with an antibody directed to a particular protein of interest and then analyzed using a flow cytometer.
Frozen cells are thawed in a 37° C. water bath and gently resuspended in the vial and transferred to the 15 mL conical tube. The 15 mL tube is centrifuged at 930 RPM (200×g) for 8 minutes at room temperature. The supernatant is aspirated and the pellet is gently resuspended in 1 mL media A. The cell suspension is filtered through a 70 um cell strainer into a new 15 mL tube. The cell strainer is rinsed with 1 mL media A and another 12 ml of media A into the 15 mL tube. The cells are mixed into an even suspension. A 20 μL aliquot is immediately removed into a 96-well plate containing 180 μL PBS+4% FBS+CD45 Alexa 700+PI to determine cell count and viability post spin. After the determination, the 15 mL tubes are centrifuged at 930 RPM (200×g) for 8 minutes at room temperature. The supernatant is aspirated and the cell pellet is gently resuspended in 4 mL PBS+4 μL Amine Aqua and incubated for 15 min in a 37° C. incubator. 10 mL RPMI+1% FBS is added to the cell suspension and the tube is inverted to mix the cells. The 15 mL tubes are centrifuged at 930 RPM (200×g) for 8 minutes at room temperature. The cells are resuspended in Media A at the desired cell concentration (1.25×10^6/mL). For samples with low numbers of cells (<18.5×10^6), the cells are resuspended in up to 15 mL media. For samples with high numbers of cells (>18.5×10^6), the volume is raised to 10 mL with media A and the desired volume is transferred to a new 15 mL tube, and the cell concentration is adjusted to 1.25×10^6 cells/ml. 1.6 mL of the above cell suspension (concentration at 1.25×10^6 cells/ml) is transferred into wells of a multi-well plate. From this plate, 80 ul is dispensed into each well of a subsequent plate. The plates are covered with a lid (Nunc) and placed in a 37° C. incubator for 2 hours to rest.
A concentration for each stimulant that is five folds more (5×) than the final concentration is prepared using Media A as diluent. 5× stimuli are arrayed into wells of a standard 96 well v-bottom plate that correspond to the wells on the plate with cells to be stimulated.
Adding the stimulant: The cell plate(s) are taken out of the incubator and placed in a 37° C. water bath next to the pipette apparatus. The cell plate is taken from the water bath and gently swirled to resuspend any settled cells. With pipettor, the stimulant is dispensed into the cell plate and vortexed at “7” for 5 seconds. The deep well plate is put back into the water bath.
Adding Fixative: 200 μl of the fixative solution (final concentration at 1.6%) is dispensed into wells and then mixed on the titer plate shaker on high for 5 seconds. The plate is covered with foil sealer and incubated in a 37° C. water bath for 10 minutes. The plate is spun for 6 minutes at 2000 rpm at room temperature. The cells are aspirated using a 96 well plate aspirator (VP Scientific). The plate is vortexed to resuspend cell pellets in the residual volume. The pellet is ensured to be dispersed before the Methanol step (see cell permeabilization) or clumping will occur.
Cell Permeabilization: Permeability agent, for example methanol, is added slowly and while the plate is vortexing. To do this, the cell plate is placed on titer plate shaker and made sure it is secure. The plate is set to shake using the highest setting. A pipetter is used to add 0.6 mls of 100% methanol to the plate wells. The plate(s) are put on ice until this step has been completed for all plates. […]

AML BMMC leukemic blasts = experiment: SCNP modulated signaling assay, AML study No. 2 (BMMC, CR vs NR, clinical sub-groups); type: cell-based, human; settings: Study No. 2, all patients
Method: Two independent sets of cryopreserved samples were analyzed sequentially. The first set consisted of 35 peripheral blood mononuclear cell (PBMC) samples derived from AML patients. The second set consisted of 134 cryopreserved bone marrow mononuclear cell (BMMC) samples derived from AML patients. These samples were the same samples used in the previous examples. Sample inclusion criteria required collection prior to initiation of induction chemotherapy, AML classification by the French-American-British (FAB) criteria as M0 through M7 (excluding M3) and availability of clinical annotations.
In the first study, induction chemotherapy consisted of at least one cycle of standard cytarabine-based induction therapy (i.e. daunorubicin 60 mg/m^2×3 days, cytarabine 100-200 mg/m^2 continuous infusion×7 days); responses were measured after one cycle of induction therapy. In the second study, cytarabine (200 mg/m^2 to 3 g/m^2) was used in combination with an anthracycline (daunorubicin or idarubicin) or an additional anti-metabolite (e.g. fludarabine or troxacitabine), and sometimes, an experimental agent (Table 16). Responses in this set were measured after completion of induction therapy (>90% after one cycle). […]
The median fluorescence intensity (MFI) was computed for each node from the fluorescence intensity levels for the cells in the myeloid population. […]

[1] = NR samples incl. CRp, negative = down regulation

Molecule: CCCCCCCCCCCCCC(=O)O[C@@H]1[C@@H](C)[C@@]2(O)[C@@H](C=C(CO)C[C@]3(O)C(=O)C(C)=C[C@@H]23)[C@@H]2C(C)(C)[C@]12OC(C)=O [PMA, reference compound]
- Mean Value of CRs, p-Erk Fold (AML blasts; CR samples): 1.46

B1: Il-3 (protein, UniProt P08700 20-152, looked up)
Interleukin-3: APMTQTTPLKTSWVNCSNMIDEIITHLKQPPLPLLDFNNLNGEDQDILMENNLRRPNLEAFNRAVKSLQNASAIESILKNLLPCLPLATAAPTRHPIHIKDGDWNEFRRKLTFYLKTLENAQAQQTTLSLAIF
- Mean Value of CRs, p-Stat1 Fold (AML blasts; CR samples): 0.05
- Mean Value of NRs, p-Stat1 Fold (AML blasts; [1]): −0.01

B2: IL-3 (protein, UniProt P08700 20-152, looked up)
Interleukin-3: B1 Interleukin-3
- Mean Value of CRs, p-Stat5 Fold (AML BMMC leukemic blasts; CR samples): 1.99
- Mean Value of NRs, p-Stat5 Fold (AML BMMC leukemic blasts; NR samples): 0.44
- Mean Value of CRs, p-CREB Total Phospho (AML blasts; CR samples): 1.51
- Mean Value of CRs, p-Stat3 Fold (AML blasts; CR samples): 0.15
- Mean Value of NRs, p-CREB Total Phospho (AML blasts; NR samples incl. CRp): 2.58
- Mean Value of NRs, p-Stat3 Fold (AML blasts; [1]): −0.04
